The chains behind the UniProt entries cited, without tags or fusion partners.
UniProt Q93009, whole entry: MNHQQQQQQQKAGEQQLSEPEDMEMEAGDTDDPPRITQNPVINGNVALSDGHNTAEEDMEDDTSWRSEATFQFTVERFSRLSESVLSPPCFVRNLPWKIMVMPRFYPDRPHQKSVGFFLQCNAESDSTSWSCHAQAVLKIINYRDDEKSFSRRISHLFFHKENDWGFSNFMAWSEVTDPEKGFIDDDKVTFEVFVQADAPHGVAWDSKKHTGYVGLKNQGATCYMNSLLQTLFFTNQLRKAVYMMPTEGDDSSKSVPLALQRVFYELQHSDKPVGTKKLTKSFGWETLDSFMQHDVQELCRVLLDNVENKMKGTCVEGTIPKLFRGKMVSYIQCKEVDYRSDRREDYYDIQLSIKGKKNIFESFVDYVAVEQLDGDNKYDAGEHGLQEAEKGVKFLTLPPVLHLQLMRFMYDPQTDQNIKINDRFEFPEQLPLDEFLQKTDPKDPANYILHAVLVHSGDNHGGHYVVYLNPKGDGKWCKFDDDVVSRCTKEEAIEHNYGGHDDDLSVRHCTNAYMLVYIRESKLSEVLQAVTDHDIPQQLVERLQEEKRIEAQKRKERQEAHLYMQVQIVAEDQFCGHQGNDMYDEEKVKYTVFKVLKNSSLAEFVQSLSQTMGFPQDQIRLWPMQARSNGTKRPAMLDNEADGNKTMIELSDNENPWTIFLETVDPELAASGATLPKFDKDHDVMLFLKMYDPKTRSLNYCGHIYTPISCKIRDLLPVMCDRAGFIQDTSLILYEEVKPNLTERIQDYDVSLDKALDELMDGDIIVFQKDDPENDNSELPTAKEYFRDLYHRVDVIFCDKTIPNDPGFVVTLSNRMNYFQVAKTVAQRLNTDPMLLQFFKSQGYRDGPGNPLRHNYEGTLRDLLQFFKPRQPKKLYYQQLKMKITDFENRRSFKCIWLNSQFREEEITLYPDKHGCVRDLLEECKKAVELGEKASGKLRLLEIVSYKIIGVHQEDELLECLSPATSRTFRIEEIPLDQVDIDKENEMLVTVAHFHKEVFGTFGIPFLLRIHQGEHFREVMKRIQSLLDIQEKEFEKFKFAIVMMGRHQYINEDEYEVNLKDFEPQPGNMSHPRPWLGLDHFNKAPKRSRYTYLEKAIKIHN

According to US20240408094A1, “INHIBITION OF USP7 INDUCES P53-INDEPENDENT TUMOR GROWTH SUPPRESSION IN TRIPLE-NEGATIVE BREAST CANCERS BY DESTABILIZING FOXM1” (The Trustees of Columbia University in the City of New York, priority 2023, published 2024):

Tests used:
[1] = molecular target: USP7 (Homo sapiens, UniProt Q93009); experiment: USP7 protein degradation by western blot in CAL33 cells; conditions: dose- and time-dependent
Description: (§1) To specifically degrade USP7, a set of 66 PROTAC compounds were designed and synthesized that contain an USP7 specific binding moiety XL177A and an E3 ubiquitin ligase (CRBN or VHL) binding moiety connected by different linkers. All putative USP7 PROTACs were used to treat CAL33 cells that express high levels of USP7 protein, and then the USP7 protein levels were determined by western blot (FIGS. 10A and 10B). Through initial screening, PU7-1 was identified as a potential USP7 degrader (FIG. 3A and FIG. 10). […] The effect of PU7-1 was also tested in several human cancer cells harboring wild-type p53. […] In addition, to exclude the possibility that PU7-1 affects the USP7 protein levels by regulating its transcription, a quantitative real-time PCR was performed in CAL33 treated with PU7-1 for 72 h. […]
(§2) Cells were lysed in FLAG lysis buffer (50 mM Tris-HCl (pH 7.3), 137 mM NaCl, 10 mM NaF, 0.5 mM EDTA, 1% Triton X-100, 0.2% Sarkosyl, 10% glycerol) freshly supplemented with protease inhibitor cocktail. Protein concentration was determined by the Bio-Rad protein assay. […] Membranes were blocked with 5% (w/v) nonfat milk in Tris-buffered saline with Tween-20 (TBST), incubated with primary antibodies, then secondary HRP-conjugated antibodies (Jackson ImmunoResearch, 1:10000 dilution) and detected on autoradiographic films after incubating with ECL (Thermo Scientific, #32106). […]

[2] = test system: MDM2; experiment: MDM2 protein levels by western blot in CAL33 cells; format: cell-based, human; conditions: dose- and time-dependent
Description: as §1, §2

[3] = test system: MDA-MB-468 FOXM1 cells; experiment: BrdU incorporation in MDA-MB-468 FOXM1 inducible cells; format: cell-based, human; conditions: 10 μM, 72 h
Description: FIGS. 6C and 6D show representative images of BrdU staining (FIG. 6C) and quantification of BrdU positive (BrdU+) cells (FIG. 6D) in MDA-MB468 FOXM1 inducible cells that were induced with 1 μg/ml Doxycycline overnight followed by the treatment of 10 μM of PU7-1 for 72 h. **p<0.01. FIGS. 6E and 6F show representative images of MDA-MB-468 FOXM1 tumors (FIG. 6E) and quantification of tumor weight (FIG. 6F) in nude mice xenograft model. **p<0.01.
To investigate if PU7-1-mediated effects in TNBC depend on FOXM1, it was first attempted to establish a FOXM1 crispr knockout cell line. Unfortunately, it was not possible to generate the FOXM1 knockout cell line, likely because FOXM1 is an essential gene for cell survival. […] Alternatively, an inducible FOXM1 overexpression cell line was generated in MDA-MB-468 cells (MDA-MB-468 FOXM1 cells). Doxycycline induces high levels of FOXM1 expression in MDA-MB-468 FOXM1 overexpression cells (FIG. 6A). The effects of PU7-1 on cell proliferation were compared in control and doxycycline-treated MDA-MB-468 FOXM1 cells using BrdU incorporation assay. […] Next, the role of FOXM1 in PU7-1-induced tumor suppression was tested. MDA-MB-468 FOXM1 overexpression cells were subcutaneously inoculated into 6-8-week female nude mice fed with doxycycline diet at the dosage of 625 mg/kg to induce exogenous FOXM1 expression. […]

[4] = test system: USP7 mRNA; experiment: Quantitative real-time PCR of USP7 mRNA in CAL33; conditions: CAL33, 72 h
Description: USP7 protein levels were detected by immunoblots. […] USP7 protein levels were measured by immunoblots. […] USP7 protein levels were detected by immunoblots, then quantified by ImageJ after normalized to internal control β-actin. Half maximal degradation concentration (DC50) was calculated by Graphpad Prism.
To specifically degrade USP7, a set of 66 PROTAC compounds were designed and synthesized that contain an USP7 specific binding moiety XL177A and an E3 ubiquitin ligase (CRBN or VHL) binding moiety connected by different linkers. All putative USP7 PROTACs were used to treat CAL33 cells that express high levels of USP7 protein, and then the USP7 protein levels were determined by western blot (FIGS. 10A and 10B). Through initial screening, PU7-1 was identified as a potential USP7 degrader (FIG. 3A and FIG. 10). […] The effect of PU7-1 was also tested in several human cancer cells harboring wild-type p53. […] In addition, to exclude the possibility that PU7-1 affects the USP7 protein levels by regulating its transcription, a quantitative real-time PCR was performed in CAL33 treated with PU7-1 for 72 h. […] In addition, the half-life of USP7 protein was examined in CAL33 cells in the presence or absence of PU7-1 treatment. […] CAL33 were also treated with the different dosage of PU7-1 ranging from 0.0001 to 10 µM for 24 h. […]

USP7 protein levels [1]: dramatically reduced
Compound: O=C1CCC(N2Cc3c(CCCCCN4CCN(CCC(=O)Nc5ccc6c(=O)n(CC7(O)CCN(C(=O)C(CCCNC(=O)c8ccc9c(Cl)c%10c(nc9c8)CCCC%10)Cc8ccccc8)CC7)cnc6c5)CC4)cccc3C2=O)C(=O)N1 (centres unmarked)
MDM2 protein levels [2]: decreased significantly | reduction of BrdU positive cells ([3]; FOXM1 overexpression induced by 1 μg/ml doxycycline): no reduction | BrdU positive cells after treatment ([3]; control cells (no doxycycline), untreated 32%): 15% | expression levels of USP7 mRNA [4]: not altered
